Assay results from BindingDB's records for patent US10533010 (Vanderbilt University, 2020).

Protein sequences, listed by entry. Tags and fused reporters are not part of them.
UniProt Q07820, whole entry: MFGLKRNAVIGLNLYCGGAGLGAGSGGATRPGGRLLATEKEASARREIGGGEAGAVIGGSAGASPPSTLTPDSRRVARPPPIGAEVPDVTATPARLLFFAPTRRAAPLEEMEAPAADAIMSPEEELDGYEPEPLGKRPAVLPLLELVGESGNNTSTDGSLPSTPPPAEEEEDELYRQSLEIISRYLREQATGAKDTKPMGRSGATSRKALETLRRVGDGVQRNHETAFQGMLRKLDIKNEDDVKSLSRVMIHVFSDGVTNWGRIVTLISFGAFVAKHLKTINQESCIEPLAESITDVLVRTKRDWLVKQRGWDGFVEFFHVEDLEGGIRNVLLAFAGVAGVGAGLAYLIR

target: Induced myeloid leukemia cell differentiation protein Mcl-1 (Homo sapiens, UniProt Q07820); experiment: Fluorescence Polarization Anisotropy Competition Assay
Method: Compound affinity was measured using a fluorescence polarization anisotropy competition assay. Anisotropy measurements were carried out in 384-well, black, flat-bottom plates (Greiner Bio-one, Monroe, N.C., USA).

| Ki | Structure (SMILES) |
| --- | --- |
| < 50 nM | Cc1cc(OCCCc2c(C(=O)NCc3cccc(C(=O)O)c3)[nH]c3c(-c4c(C)nn(C)c4C)c(Cl)ccc23)cc(C)c1Cl [US10533010, Example I-72] |
| < 50 nM | Cc1cc(OCCCc2c3n(c4c(-c5c(C)nn(C)c5C)c(Cl)ccc24)CCCN(Cc2ccc(C(=O)O)o2)C3=O)cc(C)c1Cl [US10533010, Example I-103] |
| < 50 nM | Cc1cc(OCCCc2c3n(c4c(-c5c(C)nn(C)c5C)c(Cl)ccc24)CCCN(c2cc(C(=O)O)c4ccn(C)c4c2)C3=O)cc(C)c1Cl [US10533010, Example I-239] |
